## Antibody variant affinities, Ab-14 light chain, assay B

Source: Li et al. 2023 (doi:10.1038/s41467-023-39022-2), MIT Lincoln Laboratory and A-Alpha Bio; data file from the FLAb repository.

Binding partner: SARS-CoV-2 spike HR2 peptide, sequence PDVDLGDISGINAS.

Parent scFv Ab-14: VH joined to VL by three GGGGS repeats. Changes lie in the light chain CDRs alone.
VH: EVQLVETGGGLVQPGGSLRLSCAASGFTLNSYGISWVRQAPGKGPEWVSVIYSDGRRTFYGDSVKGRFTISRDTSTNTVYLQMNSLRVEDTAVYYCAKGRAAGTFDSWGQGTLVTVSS
VL: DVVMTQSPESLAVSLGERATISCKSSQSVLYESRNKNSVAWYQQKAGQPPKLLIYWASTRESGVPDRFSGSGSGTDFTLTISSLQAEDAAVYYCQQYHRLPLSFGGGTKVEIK

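Phage display of a naive human antibody library on the peptide gave the parent. Designed CDR sequences, proposed from the first random library and measured here. Group labels follow the data file (En: ensemble of fine-tuned language models; GP: Gaussian process model; HC: hill climbing; Gen: genetic algorithm; Gibbs: Gibbs sampling; a sequence that several methods proposed may carry one label only). AlphaSeq pools MATa yeast showing the antibodies with MATalpha yeast showing the peptide. Mating (16 h, 30 °C) was followed by selection of diploids and sequencing of their barcodes. Read counts were normalised to the haploid input and turned into Kd by a linear fit to BCL2-family pairs of known affinity, for each replicate. Mating was done six times.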

Sequences are complete VL domains.
This list holds designs with more than six substitutions.
Each Kd is an estimate from the mating assay, the geometric mean of the replicates in which the pair was seen; lower is stronger.
"no signal" marks a missing value. The strain was present, yet no cells mated with the target were sequenced in any replicate, which points to weak or no binding.
Of ten entries with the parent sequence, four were seen in most replicates (averages 2.2 nM to 240 nM), three in one and three in none, so single entries are noisy.

The variant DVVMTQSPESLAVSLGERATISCKLQQSVQYESRVKNAVAWYQQKAGQPPKLLIYQASVRESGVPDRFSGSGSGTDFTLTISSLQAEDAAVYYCQQYHRLPLSFGGGTKVEIK [GP_Gibbs] showed 21 nM (6 of 6 replicates; controls 0 of 18).
The variant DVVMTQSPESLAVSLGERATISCIVSQLMLWGMKAKNSIAWYQQKAGQPPKLLIYEAQTRVNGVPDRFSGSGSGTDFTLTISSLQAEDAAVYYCQQYDRLPLFFGGGTKVEIK [En_Gen] showed no signal (0 of 6 replicates; controls 0 of 18).
The variant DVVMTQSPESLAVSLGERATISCLISGVWDIGSRNYNSVAWYQQKAGQPPKLLIYQTSTRESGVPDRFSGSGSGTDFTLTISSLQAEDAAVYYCQQYDRLPLEFGGGTKVEIK [En_HC] showed 11 nM (6 of 6 replicates; controls 0 of 18).
The variant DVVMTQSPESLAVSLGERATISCTLSQSWGMESHHKNNVAWYQQKAGQPPKLLIYQEETREKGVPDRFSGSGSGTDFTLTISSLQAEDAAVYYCQQYFRLPISFGGGTKVEIK [En_HC] showed 19 nM (6 of 6 replicates; controls 3 of 18).
The variant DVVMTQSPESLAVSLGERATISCSLAESAHLETRNKNSVAWYQQKAGQPPKLLIYDNSTRESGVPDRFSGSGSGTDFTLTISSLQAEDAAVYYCQHYDRLPLSFGGGTKVEIK [En_HC] showed no signal (0 of 6 replicates; controls 0 of 18).
The variant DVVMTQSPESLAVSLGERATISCKLSMQYRFETEEKNSIAWYQQKAGQPPKLLIYELVTRMSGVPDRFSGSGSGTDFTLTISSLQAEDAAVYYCQQYHRLPLSFGGGTKVEIK [En_HC] showed 61 nM (5 of 6 replicates; controls 0 of 18).
The variant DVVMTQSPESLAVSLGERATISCHMSMITLMGSRNRNSVAWYQQKAGQPPKLLIYQMTTRENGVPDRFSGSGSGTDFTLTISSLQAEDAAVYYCQQYDRLPLSFGGGTKVEIK [En_Gen] showed 5.1 nM (6 of 6 replicates; controls 0 of 18).
The variant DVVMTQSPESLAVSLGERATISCKVEQSNDYESRNKQSVAWYQQKAGQPPKLLIYNASQRLSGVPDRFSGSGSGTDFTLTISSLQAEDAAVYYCQQYHRLPLSFGGGTKVEIK [GP_Gibbs] showed 720 pM (6 of 6 replicates; controls 0 of 18).
The variant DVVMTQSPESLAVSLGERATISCALTNEPESVDHHLNNIAWYQQKAGQPPKLLIYSTSKRCMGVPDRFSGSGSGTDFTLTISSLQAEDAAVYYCQQYARLPLSFGGGTKVEIK [En_Gibbs] showed 2.4 nM (6 of 6 replicates; controls 0 of 18).
The variant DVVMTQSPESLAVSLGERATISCLLWQDFYNGRSQANAVAWYQQKAGQPPKLLIYDGNQLASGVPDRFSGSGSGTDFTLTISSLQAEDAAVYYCQQYARLPLVFGGGTKVEIK [En_Gibbs] showed 1.4 nM (6 of 6 replicates; controls 2 of 18).
The variant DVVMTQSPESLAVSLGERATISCMVTQMAMTGMTNKRSVAWYQQKAGQPPKLLIYNAETREDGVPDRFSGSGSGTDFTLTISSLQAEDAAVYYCQQYHHLPLIFGGGTKVEIK [En_Gen] showed 170 nM (5 of 6 replicates; controls 0 of 18).
The variant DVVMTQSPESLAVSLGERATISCHFSQVTMYGSWVKNSVAWYQQKAGQPPKLLIYQTSTREEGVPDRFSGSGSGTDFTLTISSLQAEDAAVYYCQQYDRLPLSFGGGTKVEIK [En_HC] showed 1.8 nM (6 of 6 replicates; controls 0 of 18).
The variant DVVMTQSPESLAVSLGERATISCHFSPSVPYESRNKNSVAWYQQKAGQPPKLLIYNASTREQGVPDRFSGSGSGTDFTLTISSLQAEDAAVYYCQDYHRLPLSFGGGTKVEIK [GP_HC] showed 530 pM (6 of 6 replicates; controls 0 of 18).
The variant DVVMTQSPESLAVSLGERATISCKLTMISGTEKVHGNNVAWYQQKAGQPPKLLIYEMETRERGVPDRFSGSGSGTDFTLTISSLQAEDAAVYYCQQYNRLPLAFGGGTKVEIK [En_Gen] showed 750 pM (6 of 6 replicates; controls 0 of 18).
The variant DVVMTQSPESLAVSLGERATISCLLSQSELLESRNWNAVAWYQQKAGQPPKLLIYHASTRMDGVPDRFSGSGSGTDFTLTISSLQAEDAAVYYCQQYHRLPLSFGGGTKVEIK [GP_Gibbs] showed 2.0 nM (6 of 6 replicates; controls 0 of 18).

Extract of 2 entries:

VL	group	Kd (apparent)	seen in	control signals
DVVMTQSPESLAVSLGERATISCMVTQMAMTGMTNKRSVAWYQQKAGQPPKLLIYNAETREDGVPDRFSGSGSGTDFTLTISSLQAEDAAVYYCQQYHHLPLIFGGGTKVEIK	En_Gen	170 nM	5/6	0/18
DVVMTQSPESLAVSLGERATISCKLSMQYRFETEEKNSIAWYQQKAGQPPKLLIYELVTRMSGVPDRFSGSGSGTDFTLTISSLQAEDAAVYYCQQYHRLPLSFGGGTKVEIK	En_HC	61 nM	5/6	0/18

The range of this assay differs from that of the first round, and the authors advise against merging the two.
Empty control strains, which show no peptide, gave a signal in 4% of pairings with all light chain designs; the median was 430 nM and 95% of these signals were weaker than 38 nM. No background was subtracted. The control count says in how many pairings with the empty strains this scFv gave a signal.
The authors' rule: three or more of the six replicates give a measured affinity, fewer mean a poor binder.